## Ab-14 light chain CDR variants: yeast mating affinities

Reference: Li et al. 2023, doi:10.1038/s41467-023-39022-2. File: FLAb, binding data.

Target: peptide PDVDLGDISGINAS, taken from heptad repeat 2 (HR2) of SARS-CoV-2 spike.

Parent scFv Ab-14: VH joined to VL by a (GGGGS)3 linker. Changes lie in the light chain CDRs alone.
VH: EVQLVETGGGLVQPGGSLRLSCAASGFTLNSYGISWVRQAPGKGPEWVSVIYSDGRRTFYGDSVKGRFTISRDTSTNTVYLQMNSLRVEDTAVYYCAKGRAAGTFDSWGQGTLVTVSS
VL: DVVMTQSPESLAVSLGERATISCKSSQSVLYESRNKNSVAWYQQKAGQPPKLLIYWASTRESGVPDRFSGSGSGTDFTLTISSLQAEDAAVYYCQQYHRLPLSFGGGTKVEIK

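The parent was found by panning a naive human phage display library on the peptide. These sequences belong to a second round, designed from the earlier measurements on random variants of the parent. Group labels follow the data file (Ctrl: baseline library sampled from a position-specific scoring matrix, with some repeated check sequences; GP: Gaussian process model; HC: hill climbing; Gen: genetic algorithm; Gibbs: Gibbs sampling; a sequence that several methods proposed may carry one label only). In AlphaSeq, yeast of one mating type display the scFv and yeast of the other type display the target. The frequency of each diploid, read from paired DNA barcodes, reflects how well the two displayed proteins bind. Scores were corrected for input abundance and mapped to Kd with protein pairs of known affinity run in the same pool. The assay was run in six technical replicates.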

Positions count from residue 1 of the parent VL; Q27M puts M in place of Q. This list holds designs with at most six substitutions. Values are apparent Kd, the geometric mean of the replicates that gave a signal; lower means stronger binding. A pair that was not seen in any replicate is written "nd"; this usually means weak binding, but a binder can also be missed. The range of this assay differs from that of the first round, and the authors advise against merging the two. Of ten entries with the parent sequence, four were seen in most replicates (averages 2.2 nM to 240 nM), three in one and three in none, so single entries are noisy. Empty control strains, which show no peptide, gave a signal in 4% of pairings with all light chain designs; the median was 430 nM and 95% of these signals were weaker than 38 nM. No background was subtracted. The authors averaged sequences with at least three values out of six and counted those with two or fewer as poor binders.

* Q27M S28C V29F W56G [GP_HC] -> 2.7 nM (6 of 6 replicates)
* S33L R34I E61N Q95T [Ctrl] -> 1.3 µM (1 of 6 replicates)
* S28L W56M T59I [Ctrl] -> 51 nM (6 of 6 replicates)
* S25L S33E K36S W56N [GP_Gen] -> 1.5 nM (6 of 6 replicates)
* K24H Q27P L30A W56N E61L [GP_HC] -> 3.4 nM (6 of 6 replicates)
* S25E V29W L30I W56E [GP_HC] -> 1.2 nM (6 of 6 replicates)
* V29W L30D Y31G R34G [Ctrl] -> 62 nM (6 of 6 replicates)
* S26G S28G V29G W56G T59Q [GP_HC] -> 1.2 nM (6 of 6 replicates)
* S25L S26E V29W S38A W56N [GP_Gen] -> 610 pM (6 of 6 replicates)
* Q27T P101F [Ctrl] -> 55 nM (1 of 6 replicates)
* S28P E61M P101V [Ctrl] -> nd (0 of 6 replicates)
* S25L S26Y V29E W56N T59Q [GP_Gen] -> 780 pM (6 of 6 replicates)
* K24A S25L V29H N35M W56N S62E [GP_Gibbs] -> 680 pM (6 of 6 replicates)
* S26P S28G W56G T59Q [GP_HC] -> 1.7 nM (6 of 6 replicates)
* S25L V29T E32D R34Q H98T [GP_HC] -> 3.8 nM (6 of 6 replicates)
* S25V N35M W56D E61C S103C [GP_HC] -> 940 pM (6 of 6 replicates)
* S25Q R34V W56D E61L [GP_HC] -> 990 pM (6 of 6 replicates)
* S25M V29I W56E [Ctrl] -> 750 pM (6 of 6 replicates)
* S25L W56E E61L Q96D [GP_Gen] -> 1.4 nM (6 of 6 replicates)
* Q27K R34D H98F [Ctrl] -> 73 nM (6 of 6 replicates)
* W56E E61L [GP_Gen] -> 2.3 nM (6 of 6 replicates)
* S28L W56N [Ctrl] -> 7.7 nM (6 of 6 replicates)
* V29E W56G T59S [GP_HC] -> 17 nM (6 of 6 replicates)
* S25L Y31T W56D Q96M [Ctrl] -> 690 pM (6 of 6 replicates)
* S25L S33Q W56S E61M [GP_Gen] -> 680 pM (6 of 6 replicates)
* L30R [Ctrl] -> nd (0 of 6 replicates)
* S25L Q27M V29E W56N T59Q [GP_Gen] -> 1.0 nM (6 of 6 replicates)
* S25L S26Q Q27M V29F W56N [GP_HC] -> 690 pM (6 of 6 replicates)
* Y31M S33W [Ctrl] -> 450 nM (4 of 6 replicates)
* K24H Q27P L30G W56N S62E Q96D [GP_HC] -> 7.3 nM (6 of 6 replicates)
* S28R W56K H98R [Ctrl] -> nd (0 of 6 replicates)
* S25L S26D V29Q W56E [GP_Gen] -> 430 pM (6 of 6 replicates)
* S25N W56H [Ctrl] -> 4.5 nM (6 of 6 replicates)
* S25L V29H W56N S62V [GP_Gen] -> 1.3 nM (6 of 6 replicates)
* S25L S26V Q27N V29T N35Q S38N [GP_HC] -> 360 nM (2 of 6 replicates)
* S25Q V29H E32L R34L W56Q H98S [Ctrl] -> 1.9 nM (6 of 6 replicates)
* S25W Q27C V29H E32D R34P S62M [GP_Gibbs] -> 810 nM (3 of 6 replicates)
* K24M N37H S58E L100Q [Ctrl] -> nd (0 of 6 replicates)
* S25L S26Y W56N A57G [GP_Gen] -> 910 pM (6 of 6 replicates)
* S25E R34L L100D [Ctrl] -> 70 nM (1 of 6 replicates)
* S28H H98V [Ctrl] -> 170 nM (1 of 6 replicates)
* S25I V29W W56G T59F [GP_HC] -> 1.1 nM (6 of 6 replicates)
* K24Q S26H V29I Y97D [Ctrl] -> nd (0 of 6 replicates)
* S25F W56N T59Q S62Q [GP_Gen] -> 390 pM (6 of 6 replicates)
* S25L S33M N35M W56Q S58V E61M [GP_Gibbs] -> 1.9 nM (6 of 6 replicates)
* S25V W56N T59Q S62Q [GP_Gen] -> 620 pM (6 of 6 replicates)
* S25L S26D V29E W56E [GP_Gen] -> 480 pM (6 of 6 replicates)
* K24M S25D Y31H R34M [Ctrl] -> 270 nM (1 of 6 replicates)
* Q27M N35W W56D [Ctrl] -> 1.3 nM (6 of 6 replicates)
* S25L Q27F V29W W56N T59Q [GP_Gen] -> 1.7 nM (6 of 6 replicates)
* S25L V29M K36S W56N T59Q [GP_Gen] -> 620 pM (6 of 6 replicates)

From the list, the first 4 with no signal in any replicate:

changes	group	Kd	seen in
S28P E61M P101V	Ctrl	nd	0 of 6
L30R	Ctrl	nd	0 of 6
S28R W56K H98R	Ctrl	nd	0 of 6
K24M N37H S58E L100Q	Ctrl	nd	0 of 6